One molecule from patent US10597366B2 (dated 2020) can be followed below.

For this test, the system named is 786-O-Hif-Luc cells (luciferase gene driven by multiple HIF responsive elements). Description: Luciferase Assay. Type of test: cell-based. Particulars: 24 h, read-out: Mean Luciferease EC50.

As a reminder, the EC50 is the concentration that produces a half-maximal response.

`N#Cc1ccc(Oc2cc(F)cc(F)c2)c2c1[C@H](O)C(F)(F)C2` [Compound 67, (S)-7-(3,5-Difluorophenoxy)-2,2-difluoro-3-hydroxy-2,3-dihydro-1H-indene-4-carbonitrile]: the EC50 was 0.074 µM.
